In PMC8530978 (Bioorganic chemistry, 2021):

System: HeLaM cells
Test: Phase contrast time lapse microscopy, mitotic duration
Format: cell-based
Details: asynchronous HeLaM cells, images every 12 min

O=C(CCCCCCC(=O)Nc1ccccc1)NO [SAHA, reference compound]
mitotic duration / mitotic arrest: 3 h
